Measurements from publication PMC2757638.

Biological target: recombinant Cse4 (S. cerevisiae) (UniProt P36012)
Assay: in vitro reconstitution of Cse4-H4 tetramers

- percent of the total input protein forming a Cse4-H4 tetramer: 0.05%
Substance: recombinant yeast histone H4 (from UniProt P02309 1-103) (natural protein; other documents disagree on this pair)
